{"source": "patent US20060100179A1", "about": "“Compositions and methods for use in targeting vascular destruction” (priority 2002, published 2006)", "tested_on": "HDF (human neonatal dermal fibroblasts)", "test": "Cell survival by clonogenic assay (colony count or MTT) in HDF", "settings": "one-hour exposure; prodrug IC50 versus cytotoxic form IC50 in HDF", "description": "Cell culture. Four commercially available human cell lines were grown in the indicated media below in 5% CO2, 80% humidity and 37EC: • 1. HL60 human leukemic cells, a pro-apoptotic cell line—cultured in RPMI 1640 fortified with 10% fetal calf serum. • 2. K562 human leukemic cells, an apoptotic-resistant cell line—cultured in RPMI 1640 fortified with 10% fetal calf serum. • 3. Human neonatal microvascular endothelial cells (HMVEC)—cultured in medium 131+microvascular growth supplement (MVGS)+attachment factor (AF)=500 ml+25 ml (AF is added 2-3 ml/T-25 flask; all reagents supplied by Cascade Biologics, Inc., Portland, Oreg.). • 4. Human neonatal dermal fibroblasts (HDF)—cultured in medium 106+low serum growth supplement (LSGS)=500 ml+10 ml (Cascade Biologics, Inc.).\nCell survival by clonogenic assay. […] After 5 days of incubation under the standard culture conditions stated above, colonies (>40 cells) were counted by an inverted light microscope or estimated by MTT assay. […]\nExperiment 1. […] Clonogenic growth was recorded after 5 days incubation for all treatments. […]\nThe combretastatins are a family of naturally occurring tubulin binding agents comprising an A-,B-,C- and D- series of structures (U.S. Pat. Nos. 4,940,726; 4,996,237; 5,409,953; and 5,569,786). […] The compounds were added to microcultures in DMSO (i.e <0.5%) and toxicity was evaluated by MTT assay after 5-7 days in culture. […]", "data": [{"substance": "Combretastatin A1 Piperazine PO4", "values": [{"measurement": "protecting HDF from cytotoxicity by the phosphate prodrug form", "result": "only marginally effective"}]}]}
